Experimental data: patent publication EP0698614A1, “Endothelin-antagonizing peptide” (KYOWA HAKKO KOGYO CO., LTD., priority 1994, dated 1996)

Amino acid sequences for entries named in this document (tags omitted). Residues count along the entry.
UniProt P21450, 21-427: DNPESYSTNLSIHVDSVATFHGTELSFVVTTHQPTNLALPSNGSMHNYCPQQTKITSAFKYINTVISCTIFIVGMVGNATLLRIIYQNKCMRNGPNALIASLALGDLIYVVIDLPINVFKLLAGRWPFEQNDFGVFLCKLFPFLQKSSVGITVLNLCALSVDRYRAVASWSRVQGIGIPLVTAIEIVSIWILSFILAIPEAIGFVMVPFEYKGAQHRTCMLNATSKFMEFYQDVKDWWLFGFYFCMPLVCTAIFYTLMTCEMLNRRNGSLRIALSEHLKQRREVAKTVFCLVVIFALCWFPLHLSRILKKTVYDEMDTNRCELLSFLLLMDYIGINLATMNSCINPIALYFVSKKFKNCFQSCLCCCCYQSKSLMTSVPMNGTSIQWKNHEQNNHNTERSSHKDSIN

What was measured:
[1] = target: T1, endothelin receptor (Bos taurus, UniProt P21450); experiment: Endothelin receptor binding inhibition (125I-endothelin-1), bovine lung membrane fraction with RES-701-1 added (Test Example 2)
T1 construct: from tissue; host or cells: bovine lung membrane fraction (RES-701-1 added at 1.5 µg/ml)
Protocol: (§1) The resulting solid substance was prepared as a suspension containing 2 mg/ml of protein, and the suspension was used as a membrane fraction liquid. […]

[2] = target: T2, endothelin receptor (Bos taurus, UniProt P28088); experiment: Endothelin receptor binding inhibition (125I-endothelin-1), bovine cerebellum membrane fraction (Test Example 1)
T2 construct: the suspension was used as a membrane fraction liquid; from tissue; host or cells: bovine cerebellum membrane fraction
T2 sequence (P28088 27-441): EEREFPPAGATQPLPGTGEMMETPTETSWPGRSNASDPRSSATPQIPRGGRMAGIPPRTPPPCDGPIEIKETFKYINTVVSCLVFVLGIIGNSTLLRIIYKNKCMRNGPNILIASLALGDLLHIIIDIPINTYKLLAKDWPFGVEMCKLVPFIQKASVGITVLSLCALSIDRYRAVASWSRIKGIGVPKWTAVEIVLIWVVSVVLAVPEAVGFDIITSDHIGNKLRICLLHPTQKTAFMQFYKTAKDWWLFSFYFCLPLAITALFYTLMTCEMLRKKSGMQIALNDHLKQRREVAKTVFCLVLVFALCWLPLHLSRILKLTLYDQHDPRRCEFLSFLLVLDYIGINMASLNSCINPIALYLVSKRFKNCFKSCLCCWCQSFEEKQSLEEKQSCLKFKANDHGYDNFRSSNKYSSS
Protocol: as §1

Work on C[C@@H]1NC(=O)[C@H]([C@@H](C)O)NC(=O)CNC(=O)[C@H](Cc2c[nH]cn2)NC(=O)[C@H](Cc2c[nH]c3ccccc23)NC(=O)[C@H](CC(N)=O)NC(=O)CNC(=O)C[C@@H](C(=O)N[C@@H](Cc2c[nH]c3ccccc23)C(=O)N[C@@H](Cc2ccccc2)C(=O)N[C@@H](Cc2ccccc2)C(=O)N[C@@H](CC(N)=O)C(=O)N[C@@H](Cc2ccc(O)cc2)C(=O)N[C@@H](Cc2ccc(O)cc2)C(=O)N[C@@H](Cc2c[nH]c3ccccc23)C(=O)O)NC(=O)[C@@H]2CCCN2C1=O [RES-701-1, reference compound] yielded an IC50 [1] greater than 1000 nM and an IC50 [2] of 10 nM.
